MC4R antagonist – MC4R antagonists of cAMP signaling, primary screen, cell-based, TR-FRET, antagonist arm of biased-ligand search; inhibition, % at 6.5 µM; actives 0.48% (n = 360,000); Melanocortin receptor 4 (Homo sapiens), P32245; MC4R-expressing cells, MTII-stimulated cAMP, LANCE TR-FRET;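 active = inhibition above its plate's cutoff, the mean of tested wells on that plate plus 3 SD, cut at about 29% in these data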
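system = U2OS cells with stable human MC4R expression | also added = Melanotan II challenge after compound preincubation | dosing = one concentration, 6.5 µM nominal | incubation = compound 30 min, challenge 1 h, detection 1 h | measured by = TR-FRET with Eu-cAMP and labeled anti-cAMP, 671 nm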
Yeast UUG start – yeast start codon fidelity modulation; activity score, % at 18.7 µM; actives 0.13% (n = 350,000); S. cerevisiae UUG-firefly luciferase reporter, luminescence/redox ratio; AID 602363;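 active means replicate mean at a twofold rise or more, about +100% in these data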;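 further: firefly luciferase made from a UUG start codon reports start codon fidelity; reporter light over untreated wells divided by growth signal over untreated wells; some hits fall short of that in this replicate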
ALR H2O2 inh – inhibitors of human ALR sulfhydryl oxidase, primary screen, biochemical, H2O2 detection, HRP-luminol luminescence, single point. inhibition, % (concentration not given with the values). 290,000 compounds, 3.8% hits. purified ALR, DTT oxidation. AID 485317, 2010;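 active means mean and each replicate at 75% or more; inconclusive means only one of the two met; inactive means neither met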;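 further: stock transfer was 7.5 nL into about 7.5 µL; 0% = neutral wells and 100% = wells with inactivated enzyme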
MC4R ag barr – MC4R agonists recruiting beta-arrestin, primary screen, cell-based, luminescence, agonist arm of biased-ligand search; Melanocortin receptor 4 (Homo sapiens), P32245; U2OS MC4R beta-arrestin complementation; percent of melanotan II response, DMSO zero; activation, % at 8.9 µM; actives 0.98% (n = 360,000); AID 540308, 2011;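 active = activation above a per-plate cutoff, the mean activation of sample wells on that plate plus 3 SD, cut at about 8% in these data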
HDAC3 inh – HDAC3 deacetylase inhibitors, primary screen, biochemical, fluorescence, cell-free homogeneous. Histone deacetylase 3 (Homo sapiens), O15379. recombinant HDAC3, fluorogenic peptide/trypsin coupled. inhibition, % at 8.3 µM. actives 0.15% (n = 320,000); in the data active = inhibition above about 26%, passing the limit was not always enough
NALP1 inh – NALP1 inflammasome inhibitors in reconstituted yeast, colorimetric, S. cerevisiae, triplicate retest. S. cerevisiae NALP1/ASC/caspase-1 growth, X-gal OD620, 72 h. inhibition, % at 10 µM. actives 0.61% (n = 280,000); in the data active = inhibition mostly above about 24%, no sharp cut-off; inactive = mostly below about 32%
U2OS cAMP counter – nonselective cAMP signaling inhibitors, parental cells, counter-screen for MC4R biased antagonist project, cell-based, TR-FRET, U2OS, forskolin, triplicate; inhibition, % at 6.5 µM; shares compounds with MC4R antagonist; LANCE TR-FRET; AID 602193, 2012; actives 26% (n = 1,600);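 active = mean inhibition over triplicates above the low-control well mean plus 3 SD, set per campaign, cut at about 13% in these data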;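 also: signal is single emission at 671 nm which falls as cellular cAMP rises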
MC4R cAMP antag – MC4R cAMP antagonists, retest, confirmation, cell-based, TR-FRET | MC4R-expressing cells, MTII-stimulated cAMP | actives 27% (n = 1,600) | inhibition, % at 6.5 µM | shares compounds with MC4R antagonist; in the data active = inhibition above about 29%
Each line names hits and unclear results; the compound was inactive in the other large screens (follow-up assays come after a bar, where they were run). Compounds with a hit are over-represented: about 4.2% of the library has one in this group of screens.

Sequences of proteins named here, by UniProt entry; tags and fusion partners are left off.
Melanocortin receptor 4 (Homo sapiens), P32245, UniProt P32245, whole entry, looked up: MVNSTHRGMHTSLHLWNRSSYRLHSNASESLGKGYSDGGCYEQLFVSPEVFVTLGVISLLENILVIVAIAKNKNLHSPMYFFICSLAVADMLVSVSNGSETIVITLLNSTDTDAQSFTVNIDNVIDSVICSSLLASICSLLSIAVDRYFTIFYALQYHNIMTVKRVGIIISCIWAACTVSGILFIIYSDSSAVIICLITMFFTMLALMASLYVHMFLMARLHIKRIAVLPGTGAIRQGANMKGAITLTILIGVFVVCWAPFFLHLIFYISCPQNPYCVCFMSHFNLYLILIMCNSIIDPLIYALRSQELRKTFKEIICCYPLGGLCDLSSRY

Cc1ccc(S(=O)(=O)N(C)C[C@@H]2OCCCC[C@@H](C)Oc3ccc(NS(=O)(=O)c4c(C)noc4C)cc3C(=O)N([C@H](C)CO)C[C@@H]2C)cc1	MC4R antagonist 34 (no result: ALR H2O2 inh, HDAC3 inh, NALP1 inh) | U2OS cAMP counter inactive | MC4R cAMP antag inactive
COc1ccc(OC)c(-c2csc(NC(=O)Cc3ccccc3)n2)c1	none
COc1cccc(CC(=O)Nc2nc(-c3cc(OC)ccc3OC)cs2)c1	MC4R antagonist 34 (no result: Yeast UUG start) | U2OS cAMP counter inactive | MC4R cAMP antag inactive
O=[N+]([O-])c1cc(S(=O)(=O)Oc2ccccc2)ccc1Cl	MC4R antagonist 30 (no result: Yeast UUG start, ALR H2O2 inh, HDAC3 inh, NALP1 inh) | U2OS cAMP counter 35 | MC4R cAMP antag inactive
C[C@@H]1CCCCO[C@@H](CN(C)C(=O)Nc2ccccc2)[C@@H](C)CN([C@H](C)CO)C(=O)c2cc(NC(=O)c3ccccc3)ccc2O1	none (no result: MC4R antagonist, ALR H2O2 inh, MC4R ag barr, HDAC3 inh, NALP1 inh)
CC(C)=CC(=O)N1CCC(n2nccc2NC(=O)CCc2ccccc2)CC1	MC4R antagonist 35 | U2OS cAMP counter inactive | MC4R cAMP antag inactive
Cc1cccc(S(=O)(=O)N2C[C@@H](O)COC[C@H]3O[C@@H](CC(=O)N4CCN(C)CC4)CC[C@@H]32)c1	none (no result: MC4R antagonist, ALR H2O2 inh, MC4R ag barr, HDAC3 inh, NALP1 inh)
O=C(c1ccccc1)C(CCC(CN1CCOCC1)C(=O)c1ccccc1)CN1CCOCC1 (stereo not drawn)	MC4R antagonist 41, ALR H2O2 inh 98 | U2OS cAMP counter inactive | MC4R cAMP antag inactive
O=C(c1ccc(F)cc1)C(CN1CCOCC1)c1ccccc1 (stereo not drawn)	none
C[C@H]1CN([C@@H](C)CO)C(=O)Cc2cc(NC(=O)c3ccncc3)ccc2O[C@H]1CN(C)CC1CC1	none (no result: MC4R antagonist, ALR H2O2 inh, MC4R ag barr, HDAC3 inh, NALP1 inh)
Cc1ccc(S(=O)(=O)n2cnc3cc([N+](=O)[O-])ccc32)cc1C	none
Cc1ccc(S(=O)(=O)n2cnc3ccccc32)cc1[N+](=O)[O-]	MC4R antagonist 29 | U2OS cAMP counter inactive | MC4R cAMP antag inactive
Cc1cnc(C(=O)OCC(=O)c2ccc(Br)s2)cn1	MC4R antagonist 30 (no result: NALP1 inh) | U2OS cAMP counter 13 | MC4R cAMP antag inactive
C[C@@H]1CN([C@@H](C)CO)C(=O)c2cc(-c3cncnc3)cnc2O[C@H]1CN(C)C(=O)Cc1cccnc1	none (no result: MC4R antagonist, ALR H2O2 inh, MC4R ag barr, HDAC3 inh, NALP1 inh)
CCn1cc(C(=O)O)c(=O)c2cnc(N3CCN(C(=S)Nc4ccccc4)CC3)nc21	MC4R antagonist 31 (no result: HDAC3 inh, NALP1 inh) | U2OS cAMP counter inactive | MC4R cAMP antag inactive
CCN(C(=O)c1ccc(NC(C)=O)cc1)c1ccccc1C	none
CCCCC(=O)Nc1ccc(C(=O)N(CC)c2ccccc2C)cc1	MC4R antagonist 30 (no result: Yeast UUG start) | U2OS cAMP counter inactive | MC4R cAMP antag inactive
C[C@@H]1CCCCO[C@H](CN(C)C(=O)CCC(F)(F)F)[C@@H](C)CN([C@H](C)CO)C(=O)c2cc(NC(=O)Nc3ccc4c(c3)OCO4)ccc2O1	none (no result: MC4R antagonist, ALR H2O2 inh, MC4R ag barr, HDAC3 inh, NALP1 inh)
COc1ccccc1N1CCN(C(=O)CCCNC(=O)Cn2cnc3sc(C)c(C)c3c2=O)CC1	MC4R antagonist 33 | U2OS cAMP counter inactive | MC4R cAMP antag inactive
COc1ccc(-n2c(CN3CCN(c4ccccn4)CC3)nc3ccc([N+](=O)[O-])cc3c2=O)c(OC)c1	MC4R antagonist 38 | U2OS cAMP counter inactive | MC4R cAMP antag inactive
O=C(c1c(F)c(F)c(F)c(F)c1F)N1CCc2ccccc21	MC4R antagonist 33 (no result: NALP1 inh) | U2OS cAMP counter 17 | MC4R cAMP antag inactive
C#CC(=O)N(c1ccc(OC)c(OC)c1)C(C(=O)NC1CCCC1)c1cccs1 (stereo not drawn)	MC4R antagonist 62, MC4R ag barr 10 | U2OS cAMP counter inactive | MC4R cAMP antag 63

High-throughput results from PubChem.
